# From US20090203734A1, “F1F0-ATPASE INHIBITORS AND RELATED METHODS” (The Regents of the University of Michigan, priority 2008, published 2009)
# How the values were obtained:
# [1] = molecular target: F1Fo-ATPase (OSCP subunit) (Bos taurus, UniProt P13621); experiment: ATP hydrolysis by SMPs reconstituted in the presence or absence of the OSCP
# Ramos B cells [2] = experiment: Early superoxide (O2-, ROS) response in Ramos B cells; type: cell-based; conditions: read-out: ROS EC50, Ramos cells; O2- response 1 h following incubation with drug
# Jurkat T cells [3] = experiment: Early superoxide (O2-, ROS) response in Jurkat T cells; type: cell-based
# Ramos B cells [4] = experiment: Cell death in Ramos B cells; type: cell-based; conditions: read-out: Cell death EC50, Ramos cells; cell death at 24 h
# Jurkat T cells [5] = experiment: Cell death in Jurkat T cells; type: cell-based
# [6] = 75 μM PK11195, pre-incubation with MnTBAP
# [7] = 75 μM PK11195, pre-incubation with Vitamin E
compound,measurement,setting,value
CCC(C)N(C)C(=O)c1cc2ccccc2c(-c2ccccc2Cl)n1 (stereo not shown),Inhibition of F1Fo-ATPase activity in SMPs reconstituted with vs without the OSCP,[1],more potent inhibitor of F1Fo-ATPase activity in the presence of the OSCP
same,EC50,Ramos B cells [2],100 µM
same,% ROS+,Jurkat T cells [3]; [6],39.7 ± 2.8%
same,% ROS+,Jurkat T cells [3]; [7],33.9 ± 2.6%
same,EC50,Ramos B cells [4],90 µM
same,% Cell death,Jurkat T cells [5]; [6],68.9 ± 1.0%
same,% Cell death,Jurkat T cells [5]; [7],55.9 ± 0.5%
